Values of other authors in US7671017B2, “Use of a combination of cyclosporine and pegylated interferon for treating hepatitis C (HCV)” (Novartis AG, priority 2004, dated 2010).

Test system: HCV
Details: patients with chronic HCV; given once weekly vs unpegylated interferon alfa-2a three times weekly

pegylated interferon alfa-2a: interferon alfa-2a with a covalently attached polyethylene glycol (PEG) moiety
effectiveness of treatment of chronic HCV: more effective treatment than a regimen of unpegylated interferon alfa-2a given three times weekly
